Measurements reported in US20130084328A1, “METHYLATED CODING AND NON-CODING RNA GENES AS DIAGNOSTIC AND THERAPEUTIC TOOLS FOR HUMAN MELANOMA” (Sanford-Burnham Medical Research Institute, priority 2011, published 2013).

System: WM1552C melanoma cells
Test: qRT-PCR validation in WM1552C/34b versus WM1552C/VO cells
Type: cell-based, human
Conditions: WM1552C/34b cells
Description: Total RNA was isolated by the Trizol method (Invitrogen/Life Technologies) with subsequent quantification and integrity analysis performed using an Agilent 2100 Bioanalyzer (Agilent Technologies, Santa Clara, Calif., USA). Total RNA (100 ng) was reverse transcribed using a High Capacity cDNA kit (Applied Biosystems/Life Technologies), and quantitative reverse-transcription PCR was carried out using TaqMan miRNA or mRNA Assays or SYBR Green mRNA Assays and a 7500 Real-Time PCR System (Applied Biosytems/Life Technologies) in accordance with the manufacturer's protocols. SYBR Green primers include CDC42 (CDC42 qPCR For-CTGCACCTAC CCACATGCAC TCGT [SEQ ID NO:19] and CDC42 qPCR Rev-TTAACTAGTA CTGGGAGGGG GAAGGG [SEQ ID NO:20]), FN1 (FN1 qPCR For-GGCTGACAGA GAAGATTCCC GAGAG [SEQ ID NO:21] and FN1 qPCR Rev-CCAGTTTAGA TGGATCTTGG CAGAGAGAC [SEQ ID NO:22]), and THBS2 (THBS2 qPCR For-TTACCGCTTC GTGCGCTTTG AC [SEQ ID NO:23] and THBS2 qPCR Rev-AACAGCGTGC CCCTGGACTT G [SEQ ID NO:24]). SDS1.2.3 software (Applied Biosystems/Life Technologies) was used for comparative Ct analysis, with RNU48, GAPDH, or β-actin serving as the endogenous controls.
Oligonucleotides complimentary to the hsa-miR-34b genomic sequences were constructed (miR-34b pre For-GTGCTCGGTT TGTAGGCAGT G [SEQ ID NO:25] and miR-34b pre Rev-GTGCCTTGTT TTGATGGCAG TG [SEQ ID NO:26]), containing HindIII and BamHI sites on their respective 5′ and 3′ ends, then amplified from melanocyte genomic DNA (Amplitaq Gold, Applied Biosystems/Life Technologies). The product was then TOPO cloned into pCR4-TOPO (Invitrogen/Life Technologies). The vector construct was sequenced and the pre-hsa-miR-34b fragment was sub-cloned into pcDNA4/H1-3TetR using the HindIII and BamHI sites to create pcDNA4/H1-3TetR/miR-34b. […] The following morning, cells were selected with 600 μg/mL Zeocin for the following 15 days.

## miR-34b: nucleic acid exemplified by SEQ ID NO:2 (CAAUCACUAACUCCACUGCCAU); stably expressed in WM1552C from pcDNA4/H1-3TetR/miR-34b (WM1552C/34b) (CAAUCACUAACUCCACUGCCAU)
Taqman qRT-PCR
  DKK1 expression lower than in WM1552C/VO cells: ~10 fold
qRT-PCR
  miR-140 expression higher compared to WM1552C/VO cells: ~3 fold
Quantitative RT-PCR
  CDC42 expression lower relative to vector only control cells: 90%
  FN1 expression lower relative to vector only control cells: ~70%
